Measured values: ChEMBL document CHEMBL5214950 (Bioorg Med Chem Lett, 2022)

Sequences of proteins named here, by UniProt entry; tags and fusion partners are left off.
UniProt P23975, whole entry: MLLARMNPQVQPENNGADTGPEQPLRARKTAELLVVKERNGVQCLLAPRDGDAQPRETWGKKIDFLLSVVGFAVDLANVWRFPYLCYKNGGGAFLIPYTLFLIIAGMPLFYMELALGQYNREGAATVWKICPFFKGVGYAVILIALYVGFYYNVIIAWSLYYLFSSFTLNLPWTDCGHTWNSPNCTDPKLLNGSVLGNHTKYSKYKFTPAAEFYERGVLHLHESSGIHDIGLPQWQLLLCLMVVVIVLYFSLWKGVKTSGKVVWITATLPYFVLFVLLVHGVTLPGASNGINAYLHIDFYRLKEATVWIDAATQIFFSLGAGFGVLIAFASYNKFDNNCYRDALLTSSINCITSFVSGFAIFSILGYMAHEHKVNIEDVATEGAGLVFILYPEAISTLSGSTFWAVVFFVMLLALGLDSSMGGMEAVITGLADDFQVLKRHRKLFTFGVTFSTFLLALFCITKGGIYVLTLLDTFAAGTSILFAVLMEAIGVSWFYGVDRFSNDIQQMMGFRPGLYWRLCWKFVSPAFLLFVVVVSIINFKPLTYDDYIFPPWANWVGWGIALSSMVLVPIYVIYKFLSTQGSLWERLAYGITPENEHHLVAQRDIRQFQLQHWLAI

The molecules below were run against Sodium-dependent noradrenaline transporter (Homo sapiens, UniProt P23975) (assay: Inhibition of norepinephrine transporter (unknown origin) assessed as inhibition of norepinephrine reuptake).

| SMILES | IC50 [µM] |
| --- | --- |
| CC(NC(C)(C)C)C(=O)c1cccc(Cl)c1 (racemic) [BUPROPION] | 1.6 |
| [2H]C([2H])([2H])[C@]([2H])(NC(C)(C)C)C(=O)c1cccc(Cl)c1 | 2.2 |
| [2H]C([2H])([2H])C(N[C@]([2H])(C)C(=O)c1cccc(Cl)c1)(C([2H])([2H])[2H])C([2H])([2H])[2H] | 6.8 |
| [2H]C([2H])([2H])[C@@]([2H])(NC(C)(C)C)C(=O)c1cccc(Cl)c1 | 3.1 |
| [2H]C([2H])([2H])C(N[C@@]([2H])(C)C(=O)c1cccc(Cl)c1)(C([2H])([2H])[2H])C([2H])([2H])[2H] | 1 |
